The results in this text go back to US20230374072A1 (priority 2020, published 2023).

By UniProt entry, the sequences of proteins in these tests, tags left out. Where a name states a change or a piece, a line headed by the entry shows the natural chain unless it says otherwise.
UniProt P15692: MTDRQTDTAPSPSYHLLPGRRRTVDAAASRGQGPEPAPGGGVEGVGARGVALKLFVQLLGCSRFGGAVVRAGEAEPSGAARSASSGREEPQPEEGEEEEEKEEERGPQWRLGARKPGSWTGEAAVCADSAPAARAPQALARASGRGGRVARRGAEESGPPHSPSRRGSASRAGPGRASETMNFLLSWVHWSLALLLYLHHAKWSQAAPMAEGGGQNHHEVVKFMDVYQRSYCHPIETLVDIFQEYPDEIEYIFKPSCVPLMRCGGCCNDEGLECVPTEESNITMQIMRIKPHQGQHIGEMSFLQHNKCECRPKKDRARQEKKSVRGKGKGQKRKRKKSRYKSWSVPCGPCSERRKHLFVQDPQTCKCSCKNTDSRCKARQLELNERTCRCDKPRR

The target in one assay is VEGF165 (Homo sapiens, UniProt P15692). Kind of assay: recognition ELISA assay, interaction with VEGF165. As to conditions: compared with parental vNAR, FIG. 2. In general terms: In an ELISA, binding on a coated surface is turned into a signal by an enzyme label.
The next assay concerns the target VEGF (Homo sapiens, UniProt P15692). Put plainly: in vitro neutralization assay, HUVEC angiogenesis with VEGF. Type of assay: cell-based. Particulars: HUVEC cells plus VEGF; FIG. 3 and 4.

On to GDCPPWCGARCKNLLPRYLVNGIAAMGYSSSC, for which the “recognition of the antigen (interaction with VEGF165)” value on VEGF165 is recorded as “has the ability to recognize the antigen”. For the same sequence, on VEGF, the “inhibition of angiogenesis (VEGF neutralization)” value is “inhibits VEGF”.
